Drawing on US11111242B2, “Pyrrolo[2,3-d]pyrimidinyl, pyrrolo[2,3-b]pyrazinyl and pyrrolo[2,3-d]pyridinyl acrylamides” (Pfizer Inc., priority 2013, dated 2021), this text covers IC50 for two compounds.

The subject of experiment [1] is IL-15 induced STAT5 phosphorylation in Human Whole Blood (total lymphocytes). The experiment can be described thus: HWB IL-15 Induced STAT5 Phosphorylation Assay. The experiment is classed as cell-based. As to conditions: Lymphocyte, read-out: HWB-IL15-pSTAT5 IC50 (nM). The procedure:
HWB IL-15 Induced STAT5 Phosphorylation Assay
After mixing and incubating for 45 minutes at 37° C., 5 μl D-PBS (unstimulated control) or 20× stocks of 5 μl human IL-15 (final concentration is 50 ng/ml) were added, and mixed three times. After incubating 15 minutes at 37° C., 1× Lyse/Fix Buffer (BD Phosflow 5× Lyse/Fix Buffer) was added to all wells at 1000 μl/well, then incubated for 20 minutes at 37° C. and spun 5 mins at 1200 rpm. […] Following incubating at 4° C. over night, all the samples were transferred to 96-well polypropylene U-bottom plate, and checked by flow cytometry gated on total lymphocytes.

Experiment [2] has as its system IL-15 induced P-STAT5 in human PBMC (total lymphocytes). The experiment can be described thus: PBMC IL-15 Induced P-STAT5. The experiment is classed as cell-based. As to conditions: read-out: PBMC IL15-pSTAT5 IC50 (nM). The procedure:
PBMC IL-15 Induced P-STAT5
Frozen human PBMC (200-250 million cells/vial) was thawed at 37° C. The cells were transferred to 10 mL warm medium in a 50-mL conical tube, and centrifuged at 1,200 RPM at room temperature for 5 min. The supernatant was aspirated. Cells were suspended in 3 mL warm human plasma and incubated at 37° C. in a tissue culture incubator for 1.5 to 2 h. After adding 47 ml D-PBS (37° C.) to PBMC/FBS suspension, centrifuging at 1,200 RPM at room temperature for 5 min, and aspirating the supernatant, the cells were resuspended in 20 mL warm RPMI medium. Ninety μL of cell suspension were pipetted per well in a 96-well, deep-well, V-bottom plate, and the plate was incubated at 37° C. for 30 min. Five μL of compound were transferred to each well (final 0.2% DMSO), vortex gently and incubate at 37° C. for 15 min; 5 μL 4% DMSO/PBS were added to the control wells. […] Samples were analyzed using a BD Calibur™ or BD FACSCanto™ flow cytometer equipped with the BD High Throughput Sampler.

`C=CC(=O)N1C2CCC(Nc3ncnc4[nH]ccc34)C1CC2` (stereo not shown) [Example 56, 1-(2-((7H-Pyrrolo[2,3-d]pyrimidin-4-yl)amino)-8-azabicyclo[3.2.1]octan-8-yl)prop-2-en-1-one]: the IC50 was 2100 nM in experiment [1] and 158 nM in experiment [2].
On the same counts, the results for `C=CC(=O)N1[C@H]2CC[C@@H]1[C@H](Nc1ncnc3[nH]ccc13)CC2` [Example 16, 1-((1R,2R,5R)-2-((7H-Pyrrolo[2,3-d]pyrimidin-4-yl)amino)-8-azabicyclo[3.2.1]octan-8-yl)prop-2-en-1-one] are 499 nM and 61.5 nM.

Broadly, the IC50 is the concentration needed to halve the response being measured.
